# Antibody variant affinities, Ab-95 light chain, assay 2

All variants were tested on one target, the spike HR2 peptide PDVDLGDISGINAS (SARS-CoV-2).

Each scFv is VH, a 15-residue (Gly4Ser)3 linker, VL, as in the parent Ab-95, and differs from it in the CDRs of the light chain only.
VH: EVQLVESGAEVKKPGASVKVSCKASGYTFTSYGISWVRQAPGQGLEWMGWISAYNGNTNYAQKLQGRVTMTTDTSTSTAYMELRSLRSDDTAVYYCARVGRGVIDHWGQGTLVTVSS
VL: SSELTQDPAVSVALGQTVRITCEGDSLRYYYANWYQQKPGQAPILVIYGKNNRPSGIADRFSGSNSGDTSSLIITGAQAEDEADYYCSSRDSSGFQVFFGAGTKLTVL

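Phage display of a naive human antibody library on the peptide gave the parent. AAYL52 was designed without a model: most single CDR substitutions and a random sample of double and triple ones. The scFvs were displayed on barcoded MATa yeast, the peptide on MATalpha yeast. Pairs that bind mate more often; barcode pairs of the diploids are counted by sequencing. Read counts were normalised to the haploid input and turned into Kd by a linear fit to BCL2-family pairs of known affinity, for each replicate. There are three technical replicates.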

Variants are written as CDR1, CDR2 and CDR3 of the light chain (limits as in the source). Parent: EGDSLRYYYAN, GKNNRPS, SSRDSSGFQVF. All variants listed here change S93 of the VL, counted from its first residue. Kd is apparent (estimated from mating counts) and averaged on the log scale over replicates with a signal. Smaller is tighter. Where no diploid with the target was found in any replicate, the entry reads "no signal": below detection, most likely a poor binder, though not proof of it. Parent in this assay: reference entry 200 nM, copy in this library 180 nM.

EGDSLRYYYAN, GNNNRPS, SSRDSRGFQPF: 480 nM (3 of 3 replicates; controls 3 of 9).
EGDSLRYYYAY, GKNNRPS, SSRDSFDFQVF: no signal (0 of 3 replicates; controls 2 of 9).
EGDSLRYYYAN, GKNNRPS, SSGDSWGFMVF: 440 nM (3 of 3 replicates; controls 2 of 9).
EGCSLAYYYAN, GKNNRPS, SSRDSLGFQVF: no signal (0 of 3 replicates; controls 0 of 9).
EGDSLRYYYAN, GKNPAPS, SSRDSLGFQVF: no signal (0 of 3 replicates; controls 1 of 9).
EGDSLEYYYAM, GKNNRPS, SSRDSNGFQVF: 3.2 µM (1 of 3 replicates; controls 2 of 9).
EGDSLRYYYFN, GFNNRPS, SSRDSDGFQVF: 56 µM (1 of 3 replicates; controls 3 of 9).
ELDSLRAYYAN, GKNNRPS, SSRDSMGFQVF: 34 µM (2 of 3 replicates; controls 2 of 9).
EGDNLRYYYAN, GKNNRPS, SSIDSCGFQVF: 3.3 µM (1 of 3 replicates; controls 2 of 9).
EGASLRYYYAN, GKNNRPS, SSRDSHTFQVF: 17 µM (2 of 3 replicates; controls 2 of 9).
EGDSLRYYYAN, GKNNRPS, GSNDSEGFQVF: 200 nM (3 of 3 replicates; controls 3 of 9).
EGDSLRYYYAN, SKNNRPQ, SSRDSFGFQVF: 5.0 µM (3 of 3 replicates; controls 3 of 9).
EGDSWRYYLAN, GKNNRPS, SSRDSNGFQVF: no signal (0 of 3 replicates; controls 0 of 9).
EGDSLRYYYAN, GKNNRPS, SSRDSHGFQVK: 7.4 µM (3 of 3 replicates; controls 1 of 9).
EGDSLRYYYAN, GKNNRPS, SSRDIHGPQVF: 29 µM (2 of 3 replicates; controls 2 of 9).
EGDSLRYYYAN, GKNNRPS, SSRDMEGFQVF: 270 µM (1 of 3 replicates; controls 3 of 9).
EGDSLRYYYAN, GKNNRPS, SNRDSHGFQQF: 680 nM (2 of 3 replicates; controls 0 of 9).
EGDSLRYYYAN, IKNNRPS, SSRDSPGFQVF: 71 nM (3 of 3 replicates; controls 4 of 9).
EGDSLRYYYAN, GKNNSPS, SSRDSDGFQCF: 11 µM (2 of 3 replicates; controls 5 of 9).
EGISLRYYYAN, GKNNRPS, YSRDSMGFQVF: no signal (0 of 3 replicates; controls 3 of 9).
EGDALHYYYAN, GKNNRPS, SSRDSVGFQVF: 560 nM (3 of 3 replicates; controls 7 of 9).
EGDSLRYYYAN, GKGNRPS, SSRKSDGFQVF: 610 nM (3 of 3 replicates; controls 4 of 9).
SWDSLRYYYAN, GKNNRPS, SSRDSPGFQVF: 1.6 µM (1 of 3 replicates; controls 3 of 9).
EGDSRRYAYAN, GKNNRPS, SSRDSWGFQVF: 240 µM (1 of 3 replicates; controls 2 of 9).
EGDSLRYYYAN, GKNNRPS, SSRSSDGFQVF: 1.1 µM (2 of 3 replicates; controls 1 of 9).
EGDSLRSYYAN, GKWNRPS, SSRDSVGFQVF: 4.8 µM (2 of 3 replicates; controls 5 of 9).
EGDSLRYLYAN, GKNNRPS, SSRDSAGFQHF: 440 nM (3 of 3 replicates; controls 2 of 9).
EGDSLRYYYRN, GKNNRPK, SSRDSYGFQVF: 22 µM (3 of 3 replicates; controls 3 of 9).
EGDSLRYYYAN, GKNNRPS, SSRDSKGTQVF: 120 nM (3 of 3 replicates; controls 4 of 9).
EGDSLNYYYAN, GKNNLPS, SSRDSAGFQVF: 900 nM (3 of 3 replicates; controls 0 of 9).
EGDSLRYYYAN, GKNNRPS, SSRDSEGFQVF: 190 nM (3 of 3 replicates; controls 1 of 9).
EGCSLRYYYAN, GKNNRPS, SSRDSIGFQVA: no signal (0 of 3 replicates; controls 2 of 9).
EGDSLRYGYAN, GKNNRPS, SSRDSGGFQTF: 5.8 nM (3 of 3 replicates; controls 4 of 9).
EGDSLRYYYAN, GKNFRPS, SSRGSFGFQVF: 72 nM (3 of 3 replicates; controls 3 of 9).
EGDSLEYYYAN, GKNNRPS, SSRDSTGFQVF: 270 nM (3 of 3 replicates; controls 5 of 9).
EGDSLRYYYAV, GKNNRPN, SSRDSEGFQVF: 9.3 µM (1 of 3 replicates; controls 3 of 9).
EGDSLRYYYAN, GKNYRPS, STRDSIGFQVF: 11 µM (1 of 3 replicates; controls 1 of 9).
EGDSLRYYYAN, GKNNRPS, SSRWFRGFQVF: 380 nM (3 of 3 replicates; controls 1 of 9).
EGDSLRYYYAN, GKNNRPS, VSRTSPGFQVF: 2.7 µM (3 of 3 replicates; controls 4 of 9).
EGRSLRYYYAN, GKNNRPS, SSRDSDGFHVF: 830 nM (3 of 3 replicates; controls 4 of 9).
EGDSLRGYYAN, GKNNRPS, SSRFSGGFQVF: 360 nM (3 of 3 replicates; controls 3 of 9).
EGDSLRYDYAN, GKNNRPS, SSRDSKCFQVF: 190 nM (3 of 3 replicates; controls 2 of 9).
EGDSLRYYYAN, GKNNRPS, SSRDSDGFQVF: 300 nM (3 of 3 replicates; controls 3 of 9).

The first 5 entries again:

CDR-L1	CDR-L2	CDR-L3	Kd	seen in	signal with controls
EGDSLRYYYAN	GNNNRPS	SSRDSRGFQPF	480 nM	3 of 3	3 of 9
EGDSLRYYYAY	GKNNRPS	SSRDSFDFQVF	no signal	0 of 3	2 of 9
EGDSLRYYYAN	GKNNRPS	SSGDSWGFMVF	440 nM	3 of 3	2 of 9
EGCSLAYYYAN	GKNNRPS	SSRDSLGFQVF	no signal	0 of 3	0 of 9
EGDSLRYYYAN	GKNPAPS	SSRDSLGFQVF	no signal	0 of 3	1 of 9

Three control strains display no target. For library AAYL52, 28% of the pairings with them gave a signal, with a median of 8.2 µM and one signal in twenty below 800 nM, so weak values seen in few replicates may be background. For each scFv, signals with the empty controls are counted beside the result.

Reference: Engelhart et al. 2022, doi:10.1038/s41597-022-01779-4. File: FLAb, binding data.